# Literature values, collected in paper PMC8484413 (Dermatology and Therapy, 2021).
# Tested on: patients with moderate-to-severe plaque psoriasis
# Details: phase 2, plaque psoriasis; placebo 4%; cited from earlier work
substance,measurement,value
Deucravacitinib,Rate of treatment discontinuation due to adverse events,2–7%
